Experimental data taken from publication PMC11657034.
Values joined by “and” are separate entries in the source; they are usually repeats but may differ in a detail not shown here. Equal values may be shown once.

Key:
[1] = molecular target: biotinylated actin filament (chicken G actin polymerised with biotinylated G actin) (chicken) (UniProt P68139); experiment: optical trap (3-bead assay, square wave scanning); single SolM‐II molecule on pedestal bead, actin dumbbell moved ±180 nm; 10 µM ATP; load ± 15 pN; events pooled in 4 pN bins, double exponential fit; ≈22 °C
[2] = molecular target: biotinylated actin filament (chicken G actin polymerised with biotinylated G actin) (chicken) (UniProt P68139); experiment: optical trap (3-bead assay, stationary dual beam); single SolM‐II molecule adsorbed on nitrocellulose-coated pedestal bead, actin dumbbell held in two traps; 500 µM ATP; load range ± 2 pN; KS buffer (25 mM KCl, 25 mM Hepes pH 7.4, 4 mM MgCl2, 1 mM DTT); ≈22 °C
[3] = molecular target: biotinylated actin filament (chicken G actin polymerised with biotinylated G actin) (chicken) (UniProt P68139); experiment: optical trap (3-bead assay, square wave scanning); single SolM‐II molecule on pedestal bead, actin dumbbell moved ±180 nm; 500 µM ATP; load ± 15 pN; events pooled in 4 pN bins, double exponential fit; ≈22 °C
[4] = molecular target: biotinylated actin filament (chicken G actin polymerised with biotinylated G actin) (chicken) (UniProt P68139); experiment: optical trap (3-bead assay, square wave scanning); single βM‐II molecule on pedestal bead, actin dumbbell moved ±180 nm; 1 µM ATP; load ± 15 pN; events pooled in 4 pN bins, double exponential fit; ≈22 °C
[5] = molecular target: biotinylated actin filament (chicken G actin polymerised with biotinylated G actin) (chicken) (UniProt P68139); experiment: optical trap (3-bead assay, stationary dual beam); single βM‐II molecule adsorbed on pedestal bead, actin dumbbell held in two traps; 80 µM ATP; load range ± 2 pN; KS buffer; ≈22 °C

| fast detachment rate kf [1] | fast detachment rate kf at high load [1] | detachment rate (1/τ) at 0.5–1 pN [2] | detachment rate at zero load k0 (fit of the binned rates) [2] | detachment rate at zero load k0 (fit of the scatter plot) [2] | slow detachment rate ks at high load [3] | fast detachment rate kf at high load [4] | slow detachment rate ks [4] | detachment rate (1/τ) of one load bin [5] | detachment rate at zero load k0 (fit of the binned rates) [5] | detachment rate at zero load k0 (fit of the scatter plot) [5] | Substance |
| --- | --- | --- | --- | --- | --- | --- | --- | --- | --- | --- | --- |
| 243 s⁻¹ | 25 s⁻¹ | 17.6 s^−1 | 22.2 s⁻¹ | 27 s⁻¹ | 2 s⁻¹ | – | – | – | – | – | rabbit native slow skeletal myosin II from Musculus soleus (from UniProt P04461 1-736; Q7M2V4 1-165) (complex) |
| – | – | – | – | – | – | 35 s⁻¹ | 5.7 s⁻¹ and 2.9 s⁻¹ | 33.5 s⁻¹ | 43.8 s⁻¹ | 41 s⁻¹ | rabbit native β‐cardiac myosin II (ventricular) (from UniProt P04461 1-736; Q7M2V4 1-165) (complex) |
